Reference: patent US7132420B2, “Aspartic protease inhibitors” (The United States of America as represented by the …, priority 1999, dated 2006)

System: normal cells
Test: toxicity against normal cells (IC50)
Assay type: cell-based
Settings: read-out: normal IC50, Table 1
Description: This example illustrates the HIV-1 protease inhibition activity (Ki), HIV-1 antiviral data (EC50), and the toxicity against normal cells (IC50), for particular compounds of formula (I). The HIV protease assay was done according to the protocol described in Kageyama et al, Antimicrob. Agents Chemother., 37, 272 (1993). The HIV antiviral assay was done according to the protocol described in Weislow et al., J. National Cancer Inst. 81, 577 (1989).

Row | Compound | IC50
1 | Cc1cccc(C)c1OCC(=O)N[C@@H](Cc1ccccc1)[C@@H](O)C[C@H](CC(C)C)NC(=O)[C@H](C(C)C)N1CCCC1=O | 10 µM
2 | COc1ccc(S(=O)(=O)N(Cc2ccccc2)[C@H](C(=O)N[C@@H](CC(C)C)C[C@H](O)[C@H](Cc2ccccc2)NC(=O)COc2c(C)cccc2C)C(C)C)cc1 | > 10 µM
3 | CC(C)C[C@@H](C[C@H](O)[C@H](Cc1ccccc1)NC(=O)C(NC(=O)OCc1ccccn1)C(C)C)NC(=O)C(NC(=O)OCc1ccccn1)C(C)C (stereo partly drawn) | > 20 µM
